# Properties, as collected for the OPERA models

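These are experimental values that the OPERA curators gathered from public databases to train and test their QSAR models. One number stands for a compound and property, with no spread given. Method, purity and exact conditions of the single measurements are not given. Where a salt, mixture or single isomer is drawn, the source does not say that exactly this form was tested. Some upstream entries may be estimates or bounds without being marked so.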

Melting points are in °C. The boiling point refers to atmospheric pressure (760 mmHg), by the definition of the set. logP is the log10 of the octanol-water partition coefficient; higher is more lipophilic. Solubility in water is on a log10 molar scale (set defined at 25 °C). Vapor pressure is log10 of mmHg; the set covers 15 to 30 °C, mostly 20 to 25 °C. Henry's law constant (air-water partitioning) is log10 of atm·m3/mol, nominally at 25 °C. fu is the fraction unbound in human plasma, from 0 to 1. Intrinsic clearance (human, µL/min per 10^6 hepatocytes): higher is faster turnover, and 0 stands for none detected. Cells with "n/a" have no entry in this list.

SMILES | name | melting point (°C) | BP (°C) | logP (octanol/water) | water solubility (log10 mol/L) | log VP (log10 mmHg) | Henry's law constant (log10 atm·m3/mol) | plasma fu | intrinsic clearance (µL/min/10^6 cells)
CC(c1ccc(O)cc1)(c1ccc(O)cc1)c1ccc(O)cc1 | 4,4',4''-Ethane-1,1,1-triyltriphenol | n/a | n/a | 3.88 | -4.087 | -8.427 | n/a | n/a | n/a
C[C@]12CC[C@H]3[C@@H](CCC4=CC(=O)CC[C@@H]43)[C@@H]1CCC2=O | 19-Norandrostenedione | 169 | n/a | 2.18 | -3.155 | n/a | n/a | n/a | n/a
O=S(=O)(Oc1ccc(Cl)cc1)c1ccc(Cl)cc1 | Chlorfenson | n/a | n/a | n/a | -5.01 | -5.726 | -6.786 | n/a | n/a
CCOP(=S)(OCC)SCCSCC | Disulfoton | n/a | n/a | n/a | n/a | n/a | n/a | 0.001251 | 412
O=C(NCCc1ncc(C(F)(F)F)cc1Cl)c1ccccc1C(F)(F)F | Fluopyram | 118 | 318 | n/a | n/a | -8.046 | -9.532 | n/a | n/a
CC(C)(C)c1ccc(O)c(-n2nc3ccccc3n2)c1 | Phenol, 2-(2H-benzotriazol-2-yl)-4-(1,1-dimethylethyl)- | n/a | n/a | n/a | -6.755 | -4.663 | n/a | n/a | n/a
C#C[C@]1(O)CC[C@H]2[C@H]3[C@H](CC[C@@]21C)[C@H]1CCC(=O)C=C1C[C@H]3C | delta4-Tibolone | n/a | n/a | 3.15 | n/a | -9.186 | n/a | n/a | n/a
N#C[C@@H](O)c1cccc(Oc2ccccc2)c1 | (2S)-Hydroxy(3-phenoxyphenyl)acetonitrile | -22.5 | 320.7 | 3 | -3.327 | -6.326 | n/a | n/a | n/a
CC[C@]12CC[C@H]3[C@@H](CCC4=CC(=O)CC[C@@H]43)[C@@H]1CCC2=O | (+)-13-Ethylgon-4-ene-3,17-dione | 176 | n/a | 3.3 | -3.833 | n/a | n/a | n/a | n/a
Cc1ccccc1CCl | 1-(Chloromethyl)-2-methylbenzene | n/a | n/a | 3.34 | -3.081 | -0.399 | n/a | n/a | n/a
Clc1cc(Cl)cc(-c2cc(Cl)cc(Cl)c2)c1 | n/a | 164 | n/a | n/a | n/a | -4.644 | n/a | n/a | n/a
OC(Cc1ccccc1Cl)(Cn1nc[nH]c1=S)C1(Cl)CC1 (stereo not drawn) | Prothioconazole | n/a | n/a | 4.05 | -3.06 | n/a | n/a | n/a | n/a
CCCCCCCCCC(=O)OOC(=O)CCCCCCCCC | Peroxide, bis(1-oxodecyl) | n/a | n/a | 6.05 | -6.45 | -3.303 | n/a | n/a | n/a
CCC(C)(C#N)/N=N/C(C)(C#N)CC (stereo partly drawn) | 2,2'-Azobis(2-methylbutanenitrile) | n/a | n/a | 2.07 | n/a | -2.711 | n/a | n/a | n/a
C=C(Cl)Cl | 1,1-dichloroethylene | n/a | n/a | n/a | n/a | n/a | n/a | 0.4279 | 24.46
CC(O)(CSc1ccc(F)cc1)C(=O)Nc1ccc(C#N)c(C(F)(F)F)c1 (stereo not drawn) | Bicalutamide sulfide | n/a | n/a | 3.8 | -4.936 | n/a | n/a | n/a | n/a
Oc1ccc(Cl)cc1Cc1ccccc1 | Clorophene | n/a | n/a | n/a | n/a | n/a | n/a | 0.001252 | 4.53
CN(C)C1CCCCC1 | N,N-Dimethylcyclohexylamine | n/a | n/a | 2.01 | n/a | 0.376 | n/a | n/a | n/a
CN(C)c1ccc(C(=O)c2ccc(N(C)C)cc2)cc1 | Michler's ketone | n/a | n/a | n/a | n/a | n/a | n/a | 0.00959 | 39.2
CC(C)(C)OOC(C)(C)c1cccc(C(C)(C)OOC(C)(C)C)c1 | n/a | n/a | n/a | n/a | -6.927 | -6.046 | n/a | n/a | n/a
CC(C)(C)C(=O)O[C@H]1CC[C@]2(C)[C@H]3CC[C@]4(C)C(=O)[C@H]5C[C@H]5[C@H]4[C@@H]3[C@H](Br)[C@H]3O[C@]32C1 | n/a | n/a | n/a | 5.32 | -5.505 | n/a | n/a | n/a | n/a
CCCCSP(SCCCC)SCCCC | Merphos | n/a | n/a | n/a | -5.11 | -4.699 | -4.644 | n/a | n/a
C=CCC1(C(C)C#CCC)C(=O)NC(=O)N(C)C1=O (stereo not drawn) | Methohexital | n/a | n/a | 1.8 | -3.699 | n/a | n/a | 0.26 | n/a
O=C(Nc1ccccc1)Nc1cnns1 | Thidiazuron | n/a | n/a | n/a | n/a | n/a | n/a | 0.0284 | 4.92
CN1C(=O)CC(=O)N(c2ccccc2)c2cc(Cl)ccc21 | Clobazam | 167 | n/a | n/a | -3.263 | n/a | n/a | n/a | 27
O=C(O)CCCOc1ccc(Cl)cc1Cl | 2,4-Dichlorophenoxybutyric acid | n/a | n/a | n/a | n/a | -7.15 | -8.514 | n/a | n/a
CC(C)CC(C)(C#N)N=NC(C)(C#N)CC(C)C (stereo not drawn) | 2,2'-Azobis[2,4-dimethylvaleronitrile] | 54.2 | n/a | 3.319 | n/a | n/a | n/a | n/a | n/a
CCCCNC(=O)OCC#CI | 3-Iodo-2-propynyl-N-butylcarbamate | n/a | n/a | 2.845 | n/a | -4.754 | n/a | n/a | n/a
C[C@]12CC[C@H]3[C@@H](C4CC4[C@]4(O)C[C@@H](O)CC[C@]34C)[C@@H]1[C@@H]1C[C@@H]1C2=O (stereo not given in full) | n/a | n/a | n/a | 2.06 | -3.346 | n/a | n/a | n/a | n/a

4 of these entries, quoted again:

SMILES	name	melting point (°C)	BP (°C)	logP (octanol/water)	water solubility (log10 mol/L)	log VP (log10 mmHg)	Henry's law constant (log10 atm·m3/mol)	plasma fu	intrinsic clearance (µL/min/10^6 cells)
O=C(NCCc1ncc(C(F)(F)F)cc1Cl)c1ccccc1C(F)(F)F	Fluopyram	118	318	n/a	n/a	-8.046	-9.532	n/a	n/a
N#C[C@@H](O)c1cccc(Oc2ccccc2)c1	(2S)-Hydroxy(3-phenoxyphenyl)acetonitrile	-22.5	320.7	3	-3.327	-6.326	n/a	n/a	n/a
Clc1cc(Cl)cc(-c2cc(Cl)cc(Cl)c2)c1	n/a	164	n/a	n/a	n/a	-4.644	n/a	n/a	n/a
CN(C)c1ccc(C(=O)c2ccc(N(C)C)cc2)cc1	Michler's ketone	n/a	n/a	n/a	n/a	n/a	n/a	0.00959	39.2

From the experimental data distributed with OPERA 2.9.